Publication PMC3390373

Molecular target: FLAG-tagged C-terminally truncated RPS0A (residues 1–197) (S. cerevisiae) (UniProt P32905)
Experiment: co-IP; WCE of H2880 wt cells overexpressing wt or C-terminally truncated RPS0A-FLAG; anti-FLAG M2 affinity matrix, 60 min, 4°C, buffer A200T (200 mM KCl, 20 mM Tris pH 8, 5 mM Mg acetate, 1 mM DTT, 0.2% Triton X-100); whole 40S subunits with their associated eIFs are recovered through the tagged RPS0A; Western blot, normalised to ASC1 (Figure 5B)

Question: How did the percent reduction of the co-purified amount against wt RPS0A-FLAG turn out when “eIF3 (yeast multisubunit eukaryotic initiation factor 3) (from UniProt P38249 1-964; P06103 1-763; P32497 1-812; P40217 1-347; Q04067 1-274; Q05775 1-265) (complex)” was run?
Answer: The percent reduction of the co-purified amount against wt RPS0A-FLAG was 50%.
